Laboratory results published in doi:10.1101/2021.11.22.469547.

Biological target: TPI:HLA-DR1 on THP-1 cells (IFN-γ treated, pulsed with TPI peptide) (human (endogenous in THP-1) | not stated)
Assay: BFP adhesion frequency assay

wild-type (WT) CD4 ectodomain, biotinylated (from UniProt P01730 26-396) (domain or fragment)
effective 2D affinity AcKa: 4.57e-06 μm^4 | fold of the affinity of CD4 for E8 TCR-engaged pMHC over that for free pMHC: 1820 fold
